Binding of CDR-mutated scFvs to a peptide of the spike HR2 region

Antigen: PDVDLGDISGINAS, a 14-residue peptide of the SARS-CoV-2 spike HR2 region.

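Phage display of a naive human antibody library on the peptide gave the parent. In library AAYL49, one, two or three CDR residues were substituted; doubles and triples were drawn at random. In AlphaSeq, yeast of one mating type display the scFv and yeast of the other type display the target. After mating in shaken culture at 30 °C for 16 h, diploids were selected and their barcode pairs sequenced. The ratio of observed to expected reads was calibrated, replicate by replicate, on BCL2-family standards whose Kd was known from biolayer interferometry. Each pool was mated in three replicate cultures.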

The variants keep the light chain, the linker and the frameworks of Ab-14 (scFv order VH, three GGGGS repeats, VL).
VH: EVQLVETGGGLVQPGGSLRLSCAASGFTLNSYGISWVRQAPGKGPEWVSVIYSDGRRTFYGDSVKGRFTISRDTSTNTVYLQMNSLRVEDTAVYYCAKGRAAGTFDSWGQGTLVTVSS
VL: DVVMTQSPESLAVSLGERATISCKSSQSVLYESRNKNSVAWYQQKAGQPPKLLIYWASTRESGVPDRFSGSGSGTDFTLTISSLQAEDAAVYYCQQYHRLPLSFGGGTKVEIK

Substitutions are numbered in sequence along the VH above, starting at 1 (not Kabat). Scale: log10 of Kd in nM, estimated from mating counts; low values are strong binders. Replicates are averaged; those with no signal do not enter the mean. A pair that was not seen in that replicate is written "n.d."; this usually means weak binding, but a binder can also be missed. Background: pairings of library AAYL49 with three empty control strains gave a value in 15% of cases (median 4.06, 5th percentile 2.83). Values in that range, when seen in few replicates, are hard to tell from nonspecific mating. For each scFv, signals with the empty controls are counted beside the result, with their mean in brackets. For reference, the parent read 0.65 as the reference entry and 4.11 (one replicate of three) as a member of this library.

{"changes": "L29N+Y32H+G99P", "log10 Kd (nM) by replicate": "6.43 3.91 n.d.", "mean log10 Kd (nM)": "5.17", "signal with controls": "6/9 (4.46)"}
{"changes": "G33L+I51C+Y52C", "log10 Kd (nM) by replicate": "n.d. n.d. n.d.", "mean log10 Kd (nM)": "n.d.", "signal with controls": "2/9 (3.96)"}
{"changes": "G26I+Y32C+I51K", "log10 Kd (nM) by replicate": "5.85 n.d. n.d.", "mean log10 Kd (nM)": "5.85", "signal with controls": "2/9 (3.54)"}
{"changes": "T28M+R57H+T104P", "log10 Kd (nM) by replicate": "n.d. n.d. n.d.", "mean log10 Kd (nM)": "n.d.", "signal with controls": "0/9"}
{"changes": "S35T+R56L+G99W", "log10 Kd (nM) by replicate": "n.d. n.d. n.d.", "mean log10 Kd (nM)": "n.d.", "signal with controls": "3/9 (3.96)"}
{"changes": "L29W+G33A+F59P", "log10 Kd (nM) by replicate": "n.d. n.d. 3.14", "mean log10 Kd (nM)": "3.14", "signal with controls": "1/9 (3.36)"}
{"changes": "N30M+F59A+G61I", "log10 Kd (nM) by replicate": "0.22 0.48 0.25", "mean log10 Kd (nM)": "0.32", "signal with controls": "2/9 (3.72)"}
{"changes": "F27H+I51R", "log10 Kd (nM) by replicate": "n.d. 5.31 4.48", "mean log10 Kd (nM)": "4.89", "signal with controls": "2/9 (4.45)"}
{"changes": "D54I+T58L+A102W", "log10 Kd (nM) by replicate": "n.d. 5.08 n.d.", "mean log10 Kd (nM)": "5.08", "signal with controls": "4/9 (3.96)"}
{"changes": "V50F+R100V+F105M", "log10 Kd (nM) by replicate": "3.99 4.35 n.d.", "mean log10 Kd (nM)": "4.17", "signal with controls": "4/9 (3.65)"}
{"changes": "L29S+Y32N+R100F", "log10 Kd (nM) by replicate": "n.d. n.d. n.d.", "mean log10 Kd (nM)": "n.d.", "signal with controls": "2/9 (4.11)"}
{"changes": "S35A+I51Q+S53M", "log10 Kd (nM) by replicate": "n.d. 4.68 n.d.", "mean log10 Kd (nM)": "4.68", "signal with controls": "1/9 (3.90)"}
{"changes": "S53M+T58D+D106T", "log10 Kd (nM) by replicate": "n.d. n.d. n.d.", "mean log10 Kd (nM)": "n.d.", "signal with controls": "2/9 (3.98)"}
{"changes": "D54F+R56S+F59C", "log10 Kd (nM) by replicate": "n.d. n.d. n.d.", "mean log10 Kd (nM)": "n.d.", "signal with controls": "2/9 (3.83)"}
{"changes": "S31E+S53F+S107L", "log10 Kd (nM) by replicate": "0.36 0.68 0.60", "mean log10 Kd (nM)": "0.55", "signal with controls": "1/9 (2.86)"}
{"changes": "T28N+S63H+G99K", "log10 Kd (nM) by replicate": "n.d. n.d. n.d.", "mean log10 Kd (nM)": "n.d.", "signal with controls": "0/9"}
{"changes": "T28R+V64F+A102I", "log10 Kd (nM) by replicate": "5.27 3.16 3.58", "mean log10 Kd (nM)": "4.00", "signal with controls": "1/9 (3.36)"}
{"changes": "R56K+R57T+F59T", "log10 Kd (nM) by replicate": "n.d. 1.96 n.d.", "mean log10 Kd (nM)": "1.96", "signal with controls": "0/9"}
{"changes": "G33W+G103A+D106S", "log10 Kd (nM) by replicate": "n.d. n.d. n.d.", "mean log10 Kd (nM)": "n.d.", "signal with controls": "0/9"}
{"changes": "F27Y+I34W+V64G", "log10 Kd (nM) by replicate": "n.d. n.d. 2.92", "mean log10 Kd (nM)": "2.92", "signal with controls": "0/9"}
{"changes": "I34F+S35L+K65S", "log10 Kd (nM) by replicate": "n.d. 2.85 n.d.", "mean log10 Kd (nM)": "2.85", "signal with controls": "5/9 (4.35)"}
{"changes": "G26K+Y52T+V64M", "log10 Kd (nM) by replicate": "n.d. n.d. 3.38", "mean log10 Kd (nM)": "3.38", "signal with controls": "2/9 (4.44)"}
{"changes": "K65Y+A102M+S107D", "log10 Kd (nM) by replicate": "2.06 1.68 1.49", "mean log10 Kd (nM)": "1.74", "signal with controls": "0/9"}
{"changes": "T28W+S31D+V50G", "log10 Kd (nM) by replicate": "4.46 n.d. n.d.", "mean log10 Kd (nM)": "4.46", "signal with controls": "2/9 (2.91)"}

Extract of 2 entries:

{"changes": "G33L+I51C+Y52C", "log10 Kd (nM) by replicate": "n.d. n.d. n.d.", "mean log10 Kd (nM)": "n.d.", "signal with controls": "2/9 (3.96)"}
{"changes": "G26I+Y32C+I51K", "log10 Kd (nM) by replicate": "5.85 n.d. n.d.", "mean log10 Kd (nM)": "5.85", "signal with controls": "2/9 (3.54)"}

The measurements come from Engelhart et al. 2022 (doi:10.1038/s41597-022-01779-4) through the FLAb antibody collection.